## AlphaSeq binding of Ab-14 heavy chain variants to a spike HR2 peptide

Data: MIT Lincoln Laboratory AlphaSeq set, Engelhart et al. 2022, doi:10.1038/s41597-022-01779-4, as distributed in FLAb.

Binding partner: SARS-CoV-2 spike HR2 peptide, sequence PDVDLGDISGINAS.

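Phage display of a naive human antibody library on the peptide gave the parent. AAYL49 was designed without a model: most single CDR substitutions and a random sample of double and triple ones. AlphaSeq pools MATa yeast showing the antibodies with MATalpha yeast showing the peptide. Pairs that bind mate more often; barcode pairs of the diploids are counted by sequencing. A regression on co-assayed BCL2-family reference pairs converts the normalised counts of each replicate to an apparent Kd. Mating was done three times.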

Each scFv is VH, a (GGGGS)3 linker, VL, as in the parent Ab-14, and differs from it in the CDRs of the heavy chain only.
VH: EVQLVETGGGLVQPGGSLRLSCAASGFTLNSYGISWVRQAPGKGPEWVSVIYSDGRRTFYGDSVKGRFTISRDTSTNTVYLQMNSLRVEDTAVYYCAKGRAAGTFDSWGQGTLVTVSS
VL: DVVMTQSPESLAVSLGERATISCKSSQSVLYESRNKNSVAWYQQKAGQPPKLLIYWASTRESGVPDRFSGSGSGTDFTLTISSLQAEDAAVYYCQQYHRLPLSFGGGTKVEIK

Substitutions are numbered in sequence along the VH above, starting at 1 (not Kabat). Numbers give log10(Kd / nM), so 0 is 1 nM and 3 is 1 µM. Smaller is tighter. The mean shown is taken over the replicates in which the pair was detected. An entry "nd" has no value in the source: the pair was not observed among the diploids in that replicate. This suggests poor binding but is not conclusive.

nd, nd, nd: L29W+N30Q+D106S.
nd, nd, nd: N30P+G99K+G103E.
3.62, nd, nd: S31G+Y60W+A101W.
nd, nd, nd: T28K+G55Q+G103R.
4.34, 5.12, nd (mean 4.73): V50S+R57Q+S107P.
nd, nd, nd: G33W+R56I+A101R.
5.25, 3.46, nd (mean 4.35): F27A+D54H.
nd, nd, nd: V50F+V64G.
nd, 4.87, nd: S31R+V50P+D62W.
nd, nd, nd: D62C+S63K+K65M.
1.61, 1.53, 1.55 (mean 1.56): G26Q+A101L.
1.36, 1.58, 1.43 (mean 1.46): G26Q+A101H.
nd, nd, nd: S35I+Y52E+S63F.
nd, nd, nd: I34D+G55I+G99C.
nd, nd, nd: G26Y+T28W+A102I.
nd, nd, nd: F27K+L29W+R57V.
nd, nd, nd: S63G+V64K+A102Y.
nd, nd, nd: G103H+T104H+D106P.
3.84, 3.31, nd (mean 3.57): V50Q+V64H+F105D.
nd, nd, nd: G26E+G61K+F105W.
1.07, 1.03, 1.06 (mean 1.05): T28Y+S31D+G61N.
nd, nd, 3.75: S35Y+K65F.
nd, 4.74, 5.12 (mean 4.93): Y52A+V64A+F105P.
nd, 4.22, nd: S35R+R56K+R57Y.
nd, nd, nd: S35Y+R57V.
nd, nd, nd: N30C+D54R+R56Q.
1.78, 2.02, 2.26 (mean 2.02): R56W+S63Q+R100T.
nd, 2.98, nd: R100A+G103Q+F105Q.
nd, 2.38, nd: S53D+D62R+R100F.
nd, 4.37, nd: T28C+G33A+I34T.
3.68, nd, nd: G26S+L29T+Y52D.
3.84, nd, nd: T28M+G33I+S107M.
nd, nd, nd: V50T+D54Q+G61M.
nd, nd, 5.08: Y60P+G99H+R100T.
nd, 3.51, nd: S35T+R57F+G61H.
nd, nd, nd: G55H+T58R+T104Y.
1.70, 1.78, 1.88 (mean 1.79): R56L+D62W+A101Q.
nd, 4.62, nd: G55V+S63A+S107H.
5.74, nd, nd: S31H+G33P+T58L.
nd, nd, nd: S31H+V64I+A102V.

Extract of 6 entries:

changes	log10 Kd (nM) by replicate	mean log10 Kd (nM)
S35T+R57F+G61H	nd, 3.51, nd	3.51
S31G+Y60W+A101W	3.62, nd, nd	3.62
V50S+R57Q+S107P	4.34, 5.12, nd	4.73
R56W+S63Q+R100T	1.78, 2.02, 2.26	2.02
S35Y+R57V	nd, nd, nd	nd
G26E+G61K+F105W	nd, nd, nd	nd

Background: pairings of library AAYL49 with three empty control strains gave a value in 15% of cases (median 4.06, 5th percentile 2.83). Values in that range, when seen in few replicates, are hard to tell from nonspecific mating. For reference, the parent read 0.65 as the reference entry and 4.11 (one replicate of three) as a member of this library.